The target in this test is Saponaria officinalis saporin-L1 (leaf RIP, N-terminal sequence […], SEQ ID NO:2) (Saponaria officinalis, UniProt Q2QEH4).

What is called Ki is a measure of affinity in units of concentration, obtained from inhibition or displacement. Higher therefore signals weaker binding. `Nc1ncnc2c(CN3C[C@H](COP(=O)(O)OCCCO)[C@@H](OP(=O)(O)OCCCO)C3)c[nH]c12` [s3(9-DA)s3]: the affinity (Values are Ki with no slow onset observed, A-10 RNA as substrate, pH 7.7), expressed as Ki, was 690 ± 100 nM. The “reduced binding affinity to saporin-L1 on removal of the 3′-Gs3 moiety” value (monomer s3(9-DA)s3 vs dimer s3(9-DA)Gs3) is reported as 10 fold.

The values above are taken from US8884000B2 (priority 2010, dated 2014).
